Molecular target: T1, Olfr31 (Mus musculus, UniProt Q3KPA7)
T1 construct: expressed in transfected cells; host or cells: HEK293T, co-transfected with RTP1S
T1 sequence (Q3KPA7 1-317): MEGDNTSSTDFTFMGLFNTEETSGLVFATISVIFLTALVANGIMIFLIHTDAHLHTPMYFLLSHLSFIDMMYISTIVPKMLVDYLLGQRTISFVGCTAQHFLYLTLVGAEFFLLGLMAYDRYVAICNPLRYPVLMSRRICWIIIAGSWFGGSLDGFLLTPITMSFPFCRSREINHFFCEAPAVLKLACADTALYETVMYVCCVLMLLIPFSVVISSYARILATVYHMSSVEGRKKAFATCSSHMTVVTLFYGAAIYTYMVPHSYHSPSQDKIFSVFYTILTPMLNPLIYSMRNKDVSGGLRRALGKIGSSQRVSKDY
Test: dual-luciferase (cAMP/CREB reporter) ligand screen, Olfr31 in HEK293T cells
Type: cell-based
Set-up: key: ‘+’ or ‘–‘ in each column indicates if the olfactory receptor responded or had no effect to that specific chemical; -: ‘+’ or ‘–‘ in each column indicates if the olfactory receptor responded or had no effect to that specific chemical
Conditions: chemicals tested individually, screened at 500uM (* also at 100uM)

Olfr31 response in dual-luciferase assay | Structure (SMILES)
- | CCCC(CCC)C(=O)O [valproate, reference compound]
- | C[C@]12CC[C@@H]3c4ccc(O)cc4CC[C@H]3[C@@H]1CC[C@@H]2O [estradiol, reference compound]

— PMC4207771, “Identification and Characterization of Novel Renal Sensory Receptors” (PLoS ONE, 2014)
